Experimental findings from ChEMBL document CHEMBL4330080, “Hydroxyazole scaffold-based Plasmodium falciparum dihydroorotate dehydrogenase inhibitors: Synthesis, biological evaluation and X-ray structural studies” (Eur J Med Chem, 2019) are described below.

This assay is described as follows: Selectivity ratio of IC50 for human recombinant DHODH to IC50 for Plasmodium falciparum recombinant DHODH.

For the compound `Cn1nc(O)c(C(=O)O)c1COc1cccc(C(F)(F)F)c1`, the Ratio IC50 is over 71.
For `O=C(NCC(c1ccccc1)c1ccccc1)c1nsnc1O`, the Ratio IC50 was over 17.
As to `Cn1nc(O)c(C(=O)O)c1COc1ccc(C(F)(F)F)cc1`, the Ratio IC50 was over 38.
